This series concerns Huh-7 HCV replicon cells. The experiment in a line: CC50 assay in the anti-HCV replicon assay (CellTiter-Glo). In kind it is cell-based, human. The conditions noted are these: 3 days incubation, CellTiter-Glo luminescence. The protocol:
The anti HCV activity of the quinazoline derivatives of this invention was tested in a human hepatoma Huh-7 cell line harbouring a HCV replicon. The assay comprised the following steps:
Step 1: compound preparation and serial dilution • 1. for water soluble quinazoline derivatives, a volume of 500 μL of solution in cell media (DMEM, 10% FBS, P/S, L-Glutamine) was prepared with a concentration being twice the concentration of the starting final serial dilution concentration. A volume of 150 μL of the solution was added to the pre-specified wells in column 1 of a 96-well cell culture plate (PerkinElmer, white plate, cat. #6005181, for EC50 assay; black plate, cat. #6005182 for CC50 assay). The rest of the plate, columns 2-12, was filled with 100 μL of cell media. […]
Step 3: detection: • a) for the EC50 assay, the media in a 96-well cell culture plate was aspirated with a Biotek EL405 plate-washer. […] The plate was incubated for 30 minutes at room temperature before the luminescence signal was measured with a TopCount plate-reader. • b) for the CC50 assay, a volume of 100 μL of pre-mixed CellTiter-Glo (Promega, cat.# G7572) solution is added directly to the cell culture in each well of the plate and the luminescence signal is measured with a TopCount plate-reader after 10 minutes of incubation at room temperature. […]
(In general: Replicon systems follow genome replication, usually without infectious particles.)

With “4-(4-(2-methmethoxy)-quinazolin-6-yl)-N-methyl-benzamide [Example 246]”, the half-maximal cytotoxic concentration (CC50) (usually the concentration at which the toxic effect on the cells reaches its halfway point) was greater than 20 µM.
